Binding of CDR-mutated scFvs to a peptide of the spike HR2 region

Source: Li et al. 2023 (doi:10.1038/s41467-023-39022-2), MIT Lincoln Laboratory and A-Alpha Bio; data file from the FLAb repository.

Target peptide (SARS-CoV-2 spike, HR2 region): PDVDLGDISGINAS

Parent: Ab-14, a human scFv built as VH, three GGGGS repeats, VL. Only the CDRs of the light chain vary.
VH: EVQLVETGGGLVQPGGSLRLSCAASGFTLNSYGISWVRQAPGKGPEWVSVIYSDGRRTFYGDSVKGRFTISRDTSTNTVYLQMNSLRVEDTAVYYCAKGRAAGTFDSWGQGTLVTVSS
VL: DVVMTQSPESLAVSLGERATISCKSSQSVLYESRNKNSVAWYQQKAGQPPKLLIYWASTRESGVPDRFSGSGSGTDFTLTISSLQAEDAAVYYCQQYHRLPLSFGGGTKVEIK

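The parent was found by panning a naive human phage display library on the peptide. Designed CDR sequences, proposed from the first random library and measured here. Their group label is 14L_GP_Gen (GP: Gaussian process model; Gen: genetic algorithm; a sequence that several methods proposed may carry one label only). Affinity was read by AlphaSeq, a pooled yeast mating assay with surface-displayed partners. Pairs that bind mate more often; barcode pairs of the diploids are counted by sequencing. Each replicate has its own calibration line, from reference interactions of the BCL2 family. There are six technical replicates.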

The parent's light chain CDRs are KSSQSVLYESRNKNSVA, WASTRES, QQYHRLPLS; each variant's own CDRs replace them letter for letter. Values are log10 of the apparent Kd in nM; lower means stronger binding. A sequence measured in both rounds can read differently, since the two assays cover different ranges.

CDR-L1	CDR-L2	CDR-L3	log10 Kd, replicates	empty controls
KLSQSELYESRNKNSVA	NASYRES	QQYHRLPLS	0.08 0.08 -0.01 0.11 0.00 0.23	0/18
KLSQSMGYESRNKNSVA	EASTRES	QQYHRLPLS	0.04 0.03 -0.17 -0.34 -0.13 -0.22	0/18
KLSQSKLYESRNKNSVA	NASQRLS	QQYHRLPLS	0.28 0.16 0.29 0.17 0.02 0.28	2/18 (2.84)
KMSQSQLYESRNKNSVA	NASTRES	QQYHRLPLS	0.40 0.00 0.01 -0.35 -0.01 0.01	0/18
KLQQSELYESRNKNSVA	NASTRSS	QQYHRLPLS	0.27 0.02 -0.11 0.14 -0.09 0.40	0/18
KLSQSVLMESRNKNSVA	HASTRES	QQYHRLPLS	0.26 0.10 0.01 0.03 -0.06 0.28	0/18
KVSQSVLYEDRNSNSVA	NASTRES	QQYHRLPLS	0.29 0.13 0.22 -0.01 -0.02 0.14	1/18 (2.68)
KLEQSVLYESRNKNSVA	DASTRES	QQYHRLPLS	0.53 0.25 0.04 0.11 0.28 0.20	0/18
KLSQSYLYESRNKNSVA	NASKRES	QQYHRLPLS	0.12 -0.12 -0.05 -0.16 -0.10 0.11	2/18 (2.84)
KLSQSVLYESRNKQSVA	NASTRES	QQYHRLPLS	-0.37 -0.44 -0.51 -0.65 -0.52 -0.32	0/18
KIEQSVLYESRNKNSVA	NASTRES	QQYHRLPLS	-0.28 -0.45 -0.25 -0.52 -0.72 -0.25	0/18
KVSQSKLYESRNKNSVA	NASTRES	QQYHRLPLS	0.33 0.58 0.31 0.13 0.46 0.57	0/18
KVSGSELYESRNKNSVA	NASTRES	QQYHRLPLS	-0.21 0.03 -0.34 -0.19 -0.31 -0.27	0/18
KLQQSPLYESRNKNSVA	NASTRMS	QQYHRLPLS	-0.24 -0.56 -0.26 -0.57 -0.38 -0.62	0/18
KISQSVLYESRNKNSVA	EASTRLS	QQYHRLPLS	-0.15 -0.13 -0.23 0.05 -0.28 -0.15	0/18
KLSQSGLYESRMKNSVA	NASTRES	QQYHRLPLS	-0.10 -0.24 -0.23 -0.33 -0.21 -0.28	2/18 (4.01)
KLSQSVLYESRNKNSVA	NASTREY	QQYHRLPLS	0.02 -0.03 -0.12 -0.28 -0.26 0.03	0/18
KLSQSVDYESRNKNAVA	AASTRES	QQYHRLPLS	0.19 0.26 -0.05 0.07 0.08 0.10	1/18 (3.68)
YLSQSVLYESRNKNSVA	NASTREM	QQYHRLPLS	0.18 0.08 -0.10 -0.31 0.21 0.18	3/18 (1.95)
KLSQSKLYESRNKNNVA	DASQRES	QQYHRLPLS	-0.11 -0.25 -0.27 -0.51 -0.71 -0.50	3/18 (2.37)
KLSQSVMYESRNKNSVA	NASTREE	QQYHRLPLS	-0.52 -0.45 -0.27 -0.49 -0.55 -0.38	1/18 (2.65)
KLSQSFLYESRNKNSVA	EASTRCS	QQYHRLPLS	0.11 0.18 0.12 -0.09 0.14 0.26	1/18 (2.61)
KMSQSVLYESRNKNSVA	NASTREE	QQYHRLPLS	0.08 -0.13 -0.07 -0.62 -0.22 -0.12	3/18 (1.97)
KVSQSVLYESRNSNSVA	NASTRES	QQYHRLPLS	0.03 -0.28 -0.18 -0.28 -0.34 -0.04	0/18
KLEQSWLYESRNKNSVA	NASTRED	QQYHRLPLS	0.24 0.20 -0.06 -0.18 0.00 0.26	0/18
KLQQSWLYESRNKNSVA	NASYRES	QQYHRLPLS	0.25 0.00 -0.13 -0.07 -0.01 0.01	2/18 (2.69)
KMPQSHLYESRNKNSVA	NASQRES	QQYHRLPLS	0.68 0.62 0.38 0.75 0.88 1.08	0/18
KLSQSDLYESRNKNSVA	EASTRES	QQYHRLPLS	-0.20 -0.42 -0.35 -0.63 -0.34 -0.23	0/18
KLSGSNLYESRNKNSVA	EASTRES	QQYHRLPLS	-0.42 -0.43 -0.60 -0.68 -0.60 -0.43	2/18 (3.79)
KLEESELYESRNKNSVA	NASTRES	QQYHRLPLS	0.49 0.45 0.49 0.37 0.57 0.72	2/18 (3.47)
KLSQSVLYESRNKNSVA	NASTRMD	QQYHRLPLS	-0.25 -0.34 -0.40 -0.46 -0.42 -0.17	3/18 (2.78)
KVSQSMPYESRNKNSVA	NASTRES	QQYHRLPLS	0.09 0.04 -0.10 -0.03 -0.35 -0.02	2/18 (2.69)
KLSQSVLYESRNKNAVA	NASTRES	QQYHRLPLS	-0.39 -0.43 -0.55 -0.72 -0.54 -0.36	1/18 (3.85)
KLSQSWLYESRNKNNVA	SASQRES	QQYHRLPLS	0.47 0.26 0.10 0.10 0.04 0.15	1/18 (2.53)
KVSQSVPYESRNKNSVA	DASTRCS	QQYHRLPLS	-0.06 -0.09 0.03 -0.23 -0.22 0.22	2/18 (2.54)
KLQQSWLYESRNKNSVA	DASTRES	QQYHRLPLS	-0.31 -0.20 -0.25 -0.50 -0.25 -0.34	0/18
KLPQQWLYESRNKNSVA	NASTRES	QQYHRLPLS	-0.02 0.01 -0.07 0.06 0.03 0.08	1/18 (3.55)
KLSQSVLYESRNTNSVA	NASTRES	QDYHRLPLS	0.47 0.29 0.43 0.31 0.02 0.15	0/18
KLSQSNLYESRNKNSVA	NASTRLS	QQYHRLPLS	0.34 0.23 0.34 0.00 0.20 0.23	2/18 (4.44)
KLSQSVGYESRNKNNVA	NASTRES	QQYHRLPLS	-0.04 0.02 -0.18 -0.24 -0.06 -0.02	1/18 (2.60)
KLSQSELYESRNKNSVA	NASTRCD	QQYHRLPLS	0.30 0.06 -0.36 -0.26 0.18 -0.12	0/18
KLPQSYLYESRNKNSVA	NASYRES	QQYHRLPLS	-0.35 -0.46 -0.48 -0.53 -0.58 -0.27	3/18 (3.30)
KVSQSDLYQSRNKNSVA	EASTRES	QQYHRLPLS	0.12 -0.32 -0.35 -0.42 -0.30 -0.14	0/18
KVSQSVPYEDRNKNSVA	NASQRES	QQYHRLPLS	0.06 0.07 0.13 -0.06 0.05 0.01	0/18
KYSQSVLYESRNKNSVA	NASTRES	QQYHRLPLS	-0.21 -0.25 -0.49 -0.34 -0.21 0.07	1/18 (1.77)
KLSESVLYESRNKNSVA	DASTRES	QQYHRLPLS	-0.13 -0.25 -0.37 -0.35 -0.40 -0.31	2/18 (3.55)

For reference, 6 entries of the list once more:

| CDR-L1 | CDR-L2 | CDR-L3 | log10 Kd, replicates | empty controls |
|---|---|---|---|---|
| KLSQSDLYESRNKNSVA | EASTRES | QQYHRLPLS | -0.20 -0.42 -0.35 -0.63 -0.34 -0.23 | 0/18 |
| KVSQSVLYESRNSNSVA | NASTRES | QQYHRLPLS | 0.03 -0.28 -0.18 -0.28 -0.34 -0.04 | 0/18 |
| KLSQSVMYESRNKNSVA | NASTREE | QQYHRLPLS | -0.52 -0.45 -0.27 -0.49 -0.55 -0.38 | 1/18 (2.65) |
| KLSQSWLYESRNKNNVA | SASQRES | QQYHRLPLS | 0.47 0.26 0.10 0.10 0.04 0.15 | 1/18 (2.53) |
| KLSQSKLYESRNKNSVA | NASQRLS | QQYHRLPLS | 0.28 0.16 0.29 0.17 0.02 0.28 | 2/18 (2.84) |
| KIEQSVLYESRNKNSVA | NASTRES | QQYHRLPLS | -0.28 -0.45 -0.25 -0.52 -0.72 -0.25 | 0/18 |

Three control strains display no target. For all light chain designs, 4% of the pairings with them gave a signal, with a median of 2.64 and one signal in twenty below 1.59, so weak values seen in few replicates may be background. For each scFv, signals with the empty controls are counted beside the result, with their mean in brackets. The authors' rule: three or more of the six replicates give a measured affinity, fewer mean a poor binder. Of ten entries with the parent sequence, four were seen in most replicates (averages 0.34 to 2.37), three in one and three in none, so single entries are noisy.